Values quoted from earlier work in article PMC8995271 (Targeted Oncology, 2022).

Conditions: weekly regimen, patients with ovarian cancer; cited from earlier work

Substance: carboplatin and paclitaxel
- grade 3 and above neutropenia, patients: 42%
